Source: patent US6608044B1, “Inhibition of TNF activity” (Applied Research Systems ARS Holding N.V., priority 1998, dated 2003)

The chains behind the UniProt entries cited, without tags or fusion partners. Residues count along the entry.
UniProt P01375, 77-233 limits assumed: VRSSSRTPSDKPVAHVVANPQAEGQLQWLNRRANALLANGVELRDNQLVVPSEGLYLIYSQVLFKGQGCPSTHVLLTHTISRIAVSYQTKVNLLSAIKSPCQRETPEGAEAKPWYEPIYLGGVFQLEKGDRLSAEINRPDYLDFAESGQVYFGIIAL

Target: TNF (Homo sapiens, UniProt P01375)
Test: TNF cytotoxicity on WISH cells with cycloheximide, neutral red readout
Type: cell-based
Conditions: TNF preincubated 30 minutes with receptor, heparin/Clexane added just before application to cells (columns 7 vs 11)
Protocol: To test the effectiveness of inhibition of activity of TNF (see Examples 1 and 2), WISH cells were seeded at a concentration of 30,000 cells per well in 100 μl medium. Sixteen hours later, when the cells had reached about 90% confluence, TNF, receptors, heparin, or Clexane® were added to the wells. The final concentrations added to the respective wells are as follows:
TBPI (p55 TNF-receptor), 5 ng/ml
TBPII (p75 TNF-receptor), 10 ng/ml
The different combinations were mixed in an Eppendorf tube reaching a final volume of 300 μl. Then, 50 μl were added to the respective well. If incubation was required, it was conducted in the Eppendorf tube for 30 minutes at 37° C., in a mixture or separately. After each of the different combinations were added, 50 μl cycloheximide was added to each well. […] The dye was extracted from surviving cells with a Sorensen's solution and the results were read in an ELISA reader.
WISH cells were seeded at a concentration of 30,000 cells/well in 100 μl medium. […] Following the one hour incubation, the dye was extracted with a Sorensen's solution, and the results were read in an ELISA reader. […]
After addition of the different combinations, cyclohexamide was added to each well (50 μl) for a final concentration of 25 μg/ml. […] Following the one hour incubation, the dye was extracted with a Sorensen's solution and the results were read in an ELISA reader.

Substance: p55 sTNF-R: soluble p55 TNF-receptor, extracellular part of the p55 TNF-R
- TNF inhibition by soluble receptor following heparin/Clexane addition: 15%
